Publication PMC7822067, “Pyridinium-2-carbaldoximes with quinolinium carboxamide moiety are simultaneous reactivators of acetylcholinesterase and butyrylcholinesterase inhibited by nerve agent surrogates” (2021)

Amino acid sequences for entries named in this document (tags omitted). Residues count along the entry.
UniProt P06276, 29-602 limits assumed: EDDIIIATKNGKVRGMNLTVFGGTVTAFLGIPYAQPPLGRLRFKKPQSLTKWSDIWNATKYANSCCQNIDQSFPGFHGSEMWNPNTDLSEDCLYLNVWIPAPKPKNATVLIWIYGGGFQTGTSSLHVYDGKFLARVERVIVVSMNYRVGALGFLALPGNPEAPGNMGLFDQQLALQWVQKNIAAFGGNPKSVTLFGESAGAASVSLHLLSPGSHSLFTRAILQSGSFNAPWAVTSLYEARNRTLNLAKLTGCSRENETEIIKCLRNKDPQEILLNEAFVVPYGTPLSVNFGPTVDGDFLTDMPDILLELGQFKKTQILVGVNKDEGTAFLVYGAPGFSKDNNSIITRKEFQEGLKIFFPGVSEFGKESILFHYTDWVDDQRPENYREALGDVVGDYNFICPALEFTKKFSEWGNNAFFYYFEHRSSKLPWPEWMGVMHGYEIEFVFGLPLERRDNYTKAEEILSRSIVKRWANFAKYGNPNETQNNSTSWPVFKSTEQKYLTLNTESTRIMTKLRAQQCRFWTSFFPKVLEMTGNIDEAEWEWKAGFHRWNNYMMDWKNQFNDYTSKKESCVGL

Assays:
hrBChE inhibited by NEMP = hrBChE inhibited by NEMP (Homo sapiens, UniProt P06276); experiment: Reactivation screening of NEMP-inhibited hrBChE; settings: 15 min
[1] = target: hrBChE inhibited by NEDPA (Homo sapiens, UniProt P06276); experiment: Reactivation screening of NEDPA-inhibited hrBChE; settings: 15 min
hrBChE inhibited by NIMP = hrBChE inhibited by NIMP (Homo sapiens, UniProt P06276); experiment: Reactivation screening of NIMP-inhibited hrBChE; settings: 15 min
NIMP-hrBChE = NIMP-hrBChE (Homo sapiens, UniProt P06276); experiment: Reactivation kinetics of NIMP-hrBChE

SMILES | hrBChE reactivation (%) NEMP ± SD (hrBChE inhibited by NEMP; oxime 100 µM) [%] | hrBChE reactivation (%) NEDPA ± SD ([1]; oxime 100 µM) [%] | hrBChE reactivation (%) NIMP ± SD (hrBChE inhibited by NIMP; oxime 10 µM) [%] | hrBChE reactivation (%) NIMP ± SD (hrBChE inhibited by NIMP; oxime 100 µM) [%] | kr2 (second-order reactivation rate constant, kr2=kr/KD) (NIMP-hrBChE) [mM^–1 min^–1] | kr (first-order reactivation rate constant) (NIMP-hrBChE) [min^–1] | hrBChE reactivation (%) NEMP ± SD (hrBChE inhibited by NEMP; oxime 10 µM) [%] | hrBChE reactivation (%) NEDPA ± SD ([1]; oxime 10 µM) [%]
NC(=O)c1ccc2c(ccc[n+]2CCCCC[n+]2ccccc2C=NO)c1.[Br-].[Br-] | 22.2 ± 0.5 | 0.5 ± 0.1 | 22.3 ± 0.4 | 23.9 ± 0.1 | 8.29 | 0.044 | – | –
NC(=O)c1ccc2ccc[n+](CCCCC[n+]3ccccc3C=NO)c2c1.[Br-].[Br-] | 3.5 ± 0.9 | – | 3.5 ± 0.2 | 11.8 ± 0.6 | – | – | 0.8 ± 0.4 | –
NC(=O)c1cc[n+](CCCCC[n+]2ccccc2C=NO)c2ccccc12.[Br-].[Br-] | 26.5 ± 2.5 | 9.5 ± 0.1 | 24.7 ± 0.5 | 33.3 ± 0.6 | 13.27 | 0.170 | 23.4 ± 1.2 | –
NC(=O)c1cccc2c1ccc[n+]2CCCCC[n+]1ccccc1C=NO.[Br-].[Br-] | 5.8 ± 0.9 | – | 3.7 ± 0.3 | 2.8 ± 0.6 | – | – | 5.0 ± 0.2 | –
NC(=O)c1cc2ccccc2[n+](CCCCC[n+]2ccccc2C=NO)c1.[Br-].[Br-] | 9.5 ± 0.2 | 6.3 ± 0.9 | 12.0 ± 1.1 | 13.6 ± 2.2 | – | – | 8.4 ± 0.7 | 2.8 ± 1.0
